Measurements: patent US20110081662A1, “SCREENING METHODS FOR BONE MORPHOGENETIC MIMETICS” (THRASOS THERAPEUTICS, INC., priority 2000, published 2011)

Target: T1, daf-4 ECD (Caenorhabditis elegans, UniProt P50488)
T1 construct: 1 includes additional portions on the N and C terminus; made in house; host or cells: transfected DHFR(-) CHO cell line PJ511.9.8, purified from conditioned medium
T1 sequence (P50488 with tags, fused parts or gaps): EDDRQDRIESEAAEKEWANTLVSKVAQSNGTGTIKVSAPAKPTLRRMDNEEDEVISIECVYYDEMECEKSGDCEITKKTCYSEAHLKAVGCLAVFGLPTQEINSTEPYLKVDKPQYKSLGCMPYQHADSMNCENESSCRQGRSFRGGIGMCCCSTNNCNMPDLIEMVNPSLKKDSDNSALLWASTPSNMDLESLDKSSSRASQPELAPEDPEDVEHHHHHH
Experiment: BMP binding to purified daf-4 ECD (ligand blot, Scatchard analysis)
Design: species or system C. elegans
Procedure: Purification of daf-4 ECD: A purification protocol to process large volumes of conditioned media (3.5 L/week) was developed. The procedure involves initial isolation of daf-4 ECD by using Talon (Pharmacia Tech.) Immobilized metal affinity column. As daf-4 ECD protein is linked to a hexa-His sequence, the protein is bound to the metal affinity column and is subsequently eluted by imidazoic (120 nM) containing buffer. The pooled fractions from the metal affinity column were further purified by gel filtration chromatography on Sephacryl S-200 column to remove contaminating components of very high molecular weight. The active protein eluted from Sephacryl column was purified by reversed phase HPLC using C18 column with a linear gradient of 20% to 90% of acetonitrile and 0.075% TFA. An estimated yield of highly purified daf-4 ECD from each batch of 3.5 L conditioned medium is approximately 1.5 to 2 mg. The purified preparation was analyzed by reversed phase HPLC. […] A novel ligand-blot technique was developed to evaluate the binding of BMP-7 to the purified daf-4 ECD. Upon ligand blotting with ^125I-labeled BMP-7, the ligand effectively bound to daf-4 ECD and identified two closely migrated bands. daf-4 ECD is heavily glycosylated, and differences in the carbohydrate composition of its components may contribute to the observed molecular heterogeneity of the daf-4 ECD preparations. […]

binding to extracellular domain of daf-4: readily binds
Substance: BMP-2: bone morphogenetic protein
